Consider five molecules from PubChem BioAssay (EPA / NIEHS).

The chains behind the UniProt entries cited, without tags or fusion partners. Where a name states a change or a piece, a line headed by the entry shows the natural chain unless it says otherwise.
UniProt P28223, whole entry, looked up: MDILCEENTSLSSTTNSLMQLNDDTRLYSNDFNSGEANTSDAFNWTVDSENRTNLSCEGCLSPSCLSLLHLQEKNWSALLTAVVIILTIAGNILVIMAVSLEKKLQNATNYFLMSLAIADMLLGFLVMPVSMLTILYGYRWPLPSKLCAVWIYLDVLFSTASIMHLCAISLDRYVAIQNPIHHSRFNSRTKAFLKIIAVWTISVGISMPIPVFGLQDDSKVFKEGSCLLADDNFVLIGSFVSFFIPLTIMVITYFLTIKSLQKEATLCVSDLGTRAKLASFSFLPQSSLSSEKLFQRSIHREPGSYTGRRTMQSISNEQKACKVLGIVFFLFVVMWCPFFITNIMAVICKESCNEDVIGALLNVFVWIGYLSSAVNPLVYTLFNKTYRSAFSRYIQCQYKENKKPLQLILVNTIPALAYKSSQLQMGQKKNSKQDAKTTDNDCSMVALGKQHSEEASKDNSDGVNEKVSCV
UniProt P35916, whole entry, looked up: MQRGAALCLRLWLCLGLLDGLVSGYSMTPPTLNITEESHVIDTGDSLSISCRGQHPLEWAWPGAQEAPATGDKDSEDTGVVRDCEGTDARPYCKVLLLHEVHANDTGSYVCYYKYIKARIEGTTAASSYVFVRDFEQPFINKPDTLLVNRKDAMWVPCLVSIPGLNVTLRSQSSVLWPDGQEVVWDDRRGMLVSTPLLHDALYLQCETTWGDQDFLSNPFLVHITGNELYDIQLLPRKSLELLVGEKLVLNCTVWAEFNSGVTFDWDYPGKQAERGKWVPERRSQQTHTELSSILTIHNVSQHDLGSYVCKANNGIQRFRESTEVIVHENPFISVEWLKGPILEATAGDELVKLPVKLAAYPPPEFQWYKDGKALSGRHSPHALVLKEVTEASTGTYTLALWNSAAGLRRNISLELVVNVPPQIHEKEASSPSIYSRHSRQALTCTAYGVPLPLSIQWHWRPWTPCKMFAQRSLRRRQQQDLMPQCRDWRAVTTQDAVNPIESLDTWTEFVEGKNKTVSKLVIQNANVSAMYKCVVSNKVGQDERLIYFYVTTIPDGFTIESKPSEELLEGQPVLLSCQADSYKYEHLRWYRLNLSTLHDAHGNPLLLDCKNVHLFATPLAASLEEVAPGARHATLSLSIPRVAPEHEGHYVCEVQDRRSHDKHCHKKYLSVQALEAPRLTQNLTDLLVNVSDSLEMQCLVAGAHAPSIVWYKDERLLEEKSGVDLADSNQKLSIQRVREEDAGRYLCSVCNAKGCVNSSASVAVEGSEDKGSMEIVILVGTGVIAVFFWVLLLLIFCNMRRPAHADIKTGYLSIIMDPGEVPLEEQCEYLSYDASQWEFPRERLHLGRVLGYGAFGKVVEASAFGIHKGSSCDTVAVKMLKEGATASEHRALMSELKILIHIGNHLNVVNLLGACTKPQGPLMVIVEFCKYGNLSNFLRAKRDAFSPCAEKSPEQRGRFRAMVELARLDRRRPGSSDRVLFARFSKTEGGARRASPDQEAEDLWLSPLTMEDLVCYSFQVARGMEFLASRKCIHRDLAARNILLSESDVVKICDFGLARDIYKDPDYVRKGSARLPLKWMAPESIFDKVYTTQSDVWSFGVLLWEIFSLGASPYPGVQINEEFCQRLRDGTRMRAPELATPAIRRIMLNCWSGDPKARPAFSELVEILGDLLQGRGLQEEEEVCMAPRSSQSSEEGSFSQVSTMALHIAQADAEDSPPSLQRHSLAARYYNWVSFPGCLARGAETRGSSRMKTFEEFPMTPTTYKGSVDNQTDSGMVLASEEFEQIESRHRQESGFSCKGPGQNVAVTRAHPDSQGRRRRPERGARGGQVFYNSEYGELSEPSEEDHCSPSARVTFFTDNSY
UniProt P19643, whole entry, looked up: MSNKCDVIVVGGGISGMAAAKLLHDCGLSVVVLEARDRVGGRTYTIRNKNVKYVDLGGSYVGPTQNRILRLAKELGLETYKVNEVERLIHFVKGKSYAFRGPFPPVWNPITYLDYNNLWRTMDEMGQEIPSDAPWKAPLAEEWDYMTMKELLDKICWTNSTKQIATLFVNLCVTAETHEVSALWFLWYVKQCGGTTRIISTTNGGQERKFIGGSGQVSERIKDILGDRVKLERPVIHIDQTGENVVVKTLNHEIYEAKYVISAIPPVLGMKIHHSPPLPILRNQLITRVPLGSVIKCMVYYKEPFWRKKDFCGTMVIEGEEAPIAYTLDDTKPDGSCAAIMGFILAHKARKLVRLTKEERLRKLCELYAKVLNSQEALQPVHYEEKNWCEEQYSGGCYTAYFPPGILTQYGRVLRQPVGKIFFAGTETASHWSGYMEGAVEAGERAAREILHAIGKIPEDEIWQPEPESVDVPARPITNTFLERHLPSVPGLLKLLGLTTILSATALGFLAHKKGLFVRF
UniProt P05979, whole entry, looked up: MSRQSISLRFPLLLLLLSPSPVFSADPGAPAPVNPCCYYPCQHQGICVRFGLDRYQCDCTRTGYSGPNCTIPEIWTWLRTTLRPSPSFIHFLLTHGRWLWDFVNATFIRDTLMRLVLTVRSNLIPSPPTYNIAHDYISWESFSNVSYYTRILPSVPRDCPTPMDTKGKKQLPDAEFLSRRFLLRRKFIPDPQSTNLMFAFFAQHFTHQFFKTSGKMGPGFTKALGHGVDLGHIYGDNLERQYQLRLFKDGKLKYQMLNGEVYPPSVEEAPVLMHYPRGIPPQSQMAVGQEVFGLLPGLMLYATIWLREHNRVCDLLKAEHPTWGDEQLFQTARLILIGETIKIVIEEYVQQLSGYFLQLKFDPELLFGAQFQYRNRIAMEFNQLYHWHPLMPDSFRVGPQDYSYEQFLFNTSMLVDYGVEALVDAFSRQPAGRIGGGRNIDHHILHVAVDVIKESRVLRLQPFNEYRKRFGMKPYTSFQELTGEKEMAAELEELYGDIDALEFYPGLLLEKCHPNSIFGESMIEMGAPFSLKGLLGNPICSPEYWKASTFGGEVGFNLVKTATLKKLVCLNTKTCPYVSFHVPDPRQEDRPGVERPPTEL
UniProt P21731: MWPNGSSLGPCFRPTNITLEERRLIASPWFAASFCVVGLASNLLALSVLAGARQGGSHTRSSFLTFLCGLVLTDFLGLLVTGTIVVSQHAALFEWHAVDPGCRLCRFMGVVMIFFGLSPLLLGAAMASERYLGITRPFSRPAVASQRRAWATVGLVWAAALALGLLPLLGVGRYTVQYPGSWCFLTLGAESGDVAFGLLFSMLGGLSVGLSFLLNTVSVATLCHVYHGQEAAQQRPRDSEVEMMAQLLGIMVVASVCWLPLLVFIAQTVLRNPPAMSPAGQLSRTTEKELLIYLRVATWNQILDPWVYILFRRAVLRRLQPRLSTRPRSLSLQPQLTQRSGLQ
UniProt P28190, whole entry, looked up: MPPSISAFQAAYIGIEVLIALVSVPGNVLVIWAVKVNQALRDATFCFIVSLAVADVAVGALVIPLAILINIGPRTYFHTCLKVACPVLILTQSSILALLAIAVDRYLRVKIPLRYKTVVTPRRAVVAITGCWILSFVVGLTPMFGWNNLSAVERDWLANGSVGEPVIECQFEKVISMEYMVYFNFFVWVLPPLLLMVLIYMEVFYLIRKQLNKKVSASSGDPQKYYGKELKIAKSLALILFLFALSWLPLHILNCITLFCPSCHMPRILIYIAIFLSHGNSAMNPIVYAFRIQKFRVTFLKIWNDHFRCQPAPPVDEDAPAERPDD
UniProt P24530: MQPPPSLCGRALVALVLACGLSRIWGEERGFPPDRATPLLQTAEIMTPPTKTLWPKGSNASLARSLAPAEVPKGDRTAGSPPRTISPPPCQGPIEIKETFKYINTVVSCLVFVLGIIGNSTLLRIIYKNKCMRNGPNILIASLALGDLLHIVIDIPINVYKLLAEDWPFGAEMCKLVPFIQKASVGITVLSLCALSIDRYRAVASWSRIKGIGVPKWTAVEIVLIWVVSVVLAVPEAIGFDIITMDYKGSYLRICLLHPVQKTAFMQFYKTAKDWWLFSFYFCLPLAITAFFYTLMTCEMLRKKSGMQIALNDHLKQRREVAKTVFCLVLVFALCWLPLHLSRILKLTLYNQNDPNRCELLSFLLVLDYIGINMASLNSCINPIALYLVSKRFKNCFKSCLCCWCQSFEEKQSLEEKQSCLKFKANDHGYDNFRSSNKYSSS
UniProt Q15722: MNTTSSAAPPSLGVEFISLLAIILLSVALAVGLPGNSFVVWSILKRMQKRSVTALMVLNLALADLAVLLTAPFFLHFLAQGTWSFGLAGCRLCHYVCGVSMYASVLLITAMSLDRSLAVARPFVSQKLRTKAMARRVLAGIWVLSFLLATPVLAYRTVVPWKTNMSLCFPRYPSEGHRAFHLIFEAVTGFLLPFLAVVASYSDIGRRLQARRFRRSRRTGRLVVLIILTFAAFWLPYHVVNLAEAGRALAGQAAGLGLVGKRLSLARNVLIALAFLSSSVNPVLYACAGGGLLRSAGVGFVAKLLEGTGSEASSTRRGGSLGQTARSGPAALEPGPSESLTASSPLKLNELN
UniProt O08786, whole entry, looked up: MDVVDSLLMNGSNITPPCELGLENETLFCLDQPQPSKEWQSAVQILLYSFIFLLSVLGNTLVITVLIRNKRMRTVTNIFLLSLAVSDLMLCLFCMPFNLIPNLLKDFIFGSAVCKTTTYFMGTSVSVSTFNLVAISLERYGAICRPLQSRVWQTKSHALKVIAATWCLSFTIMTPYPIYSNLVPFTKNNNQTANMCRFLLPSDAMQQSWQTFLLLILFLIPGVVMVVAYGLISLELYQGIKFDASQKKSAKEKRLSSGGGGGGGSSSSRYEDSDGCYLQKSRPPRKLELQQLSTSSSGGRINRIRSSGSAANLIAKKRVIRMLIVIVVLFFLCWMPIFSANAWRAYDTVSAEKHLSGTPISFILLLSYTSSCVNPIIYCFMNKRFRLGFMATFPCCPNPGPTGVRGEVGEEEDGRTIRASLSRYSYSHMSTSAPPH
UniProt P43140: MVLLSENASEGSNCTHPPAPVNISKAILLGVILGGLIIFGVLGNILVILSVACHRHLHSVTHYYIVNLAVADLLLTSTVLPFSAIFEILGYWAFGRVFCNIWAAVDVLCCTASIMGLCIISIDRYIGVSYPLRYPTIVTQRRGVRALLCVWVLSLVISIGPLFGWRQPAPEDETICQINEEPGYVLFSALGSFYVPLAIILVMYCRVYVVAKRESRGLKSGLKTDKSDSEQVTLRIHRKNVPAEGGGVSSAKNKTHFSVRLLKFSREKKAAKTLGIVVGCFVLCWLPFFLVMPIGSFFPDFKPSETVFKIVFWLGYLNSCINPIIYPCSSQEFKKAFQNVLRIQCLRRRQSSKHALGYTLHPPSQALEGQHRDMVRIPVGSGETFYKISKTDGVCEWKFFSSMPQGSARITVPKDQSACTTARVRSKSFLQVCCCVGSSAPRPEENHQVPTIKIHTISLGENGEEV
UniProt P35372, whole entry, looked up: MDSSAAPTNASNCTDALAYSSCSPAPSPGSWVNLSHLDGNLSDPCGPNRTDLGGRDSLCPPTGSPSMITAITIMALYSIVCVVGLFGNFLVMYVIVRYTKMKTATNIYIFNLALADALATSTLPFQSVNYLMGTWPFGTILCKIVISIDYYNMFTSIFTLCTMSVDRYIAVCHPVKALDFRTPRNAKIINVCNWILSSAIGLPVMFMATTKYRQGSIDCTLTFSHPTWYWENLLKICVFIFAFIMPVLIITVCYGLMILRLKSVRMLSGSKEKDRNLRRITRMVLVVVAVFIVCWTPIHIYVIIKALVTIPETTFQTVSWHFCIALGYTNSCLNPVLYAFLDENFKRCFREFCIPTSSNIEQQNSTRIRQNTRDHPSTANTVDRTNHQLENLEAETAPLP
UniProt O70528: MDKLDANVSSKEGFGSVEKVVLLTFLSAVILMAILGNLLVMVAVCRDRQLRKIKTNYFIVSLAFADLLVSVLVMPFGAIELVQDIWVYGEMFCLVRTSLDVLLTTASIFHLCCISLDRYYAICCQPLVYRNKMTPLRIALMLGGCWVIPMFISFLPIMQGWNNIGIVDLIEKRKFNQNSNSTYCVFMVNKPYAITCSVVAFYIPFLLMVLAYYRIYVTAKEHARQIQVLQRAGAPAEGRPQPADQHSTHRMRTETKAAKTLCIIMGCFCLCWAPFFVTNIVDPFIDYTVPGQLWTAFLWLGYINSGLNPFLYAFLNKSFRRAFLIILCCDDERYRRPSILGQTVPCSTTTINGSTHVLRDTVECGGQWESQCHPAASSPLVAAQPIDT
UniProt P18090, whole entry, looked up: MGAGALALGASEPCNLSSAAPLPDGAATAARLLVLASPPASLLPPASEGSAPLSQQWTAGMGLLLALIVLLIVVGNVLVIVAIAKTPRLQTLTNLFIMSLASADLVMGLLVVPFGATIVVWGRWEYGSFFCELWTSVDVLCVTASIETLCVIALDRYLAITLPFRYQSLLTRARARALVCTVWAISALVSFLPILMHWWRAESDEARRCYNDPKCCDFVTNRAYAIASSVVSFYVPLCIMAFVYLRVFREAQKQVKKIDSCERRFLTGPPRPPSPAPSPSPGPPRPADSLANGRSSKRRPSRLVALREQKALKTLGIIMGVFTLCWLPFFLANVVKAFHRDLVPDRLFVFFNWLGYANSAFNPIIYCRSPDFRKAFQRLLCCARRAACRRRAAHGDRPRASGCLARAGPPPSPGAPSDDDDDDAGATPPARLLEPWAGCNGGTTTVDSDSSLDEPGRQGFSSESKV

The target in test [1] is human Serotonin, 5-Hydroxytryptamine Receptor 2A (5HT2A), HTR2A (gene 3356) (UniProt P28223). Kind of test: NVS_GPCR_h5HT2A: NovaScreen (NVS) G Protein-Coupled Receptor Assay for human Serotonin, 5-Hydroxytryptamine Receptor 2A (5HT2A) (AID 2283249). The procedure, abridged: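 Radioligand displacement on human cortex tissue extract, counted by filtration and scintillation 1.5 h post-dosing. Initial single-concentration screen at 25 uM in duplicate, concentration series in follow-up; DMSO as baseline.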

The target of test [2] is D(1A) dopamine receptor (Homo sapiens) (UniProt P21728). The test is described as follows: NVS_GPCR_hDRD1: NovaScreen (NVS) G Protein-Coupled Receptor Assay for human Dopamine Receptor D1 (DRD1) (AID 2283269). The procedure, abridged:
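Cell-free competition with radioligand, filter-trapped and scintillation-counted 1 h post-dose, using HEK293-derived human D1 preparation. Duplicate single-point testing at 25 uM first, then concentration series for actives; DMSO served as baseline, loss-of-signal scored.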

The target in test [3] is human Vascular Endothelial Growth Factor Receptor 1 (VEGFR1), FLT1 (gene 2321) (UniProt P17948). The test is described as follows: NVS_ENZ_hVEGFR1: NovaScreen (NVS) Enzymatic Assay for human Vascular Endothelial Growth Factor Receptor 1 (VEGFR1) (AID 2283226). In a few lines:
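Kinase activity of recombinant human VEGFR1 was read by fluorescence after electrophoretic separation of product from substrate, 1 h post-dosing; initial duplicate single-point testing at 25 uM, followed by concentration-series follow-up, with DMSO as baseline.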

Test [4] has as its target human Vascular Endothelial Growth Factor Receptor 3 (VEGFR3), FLT4 (gene 2324) (UniProt P35916). Kind of test: NVS_ENZ_hVEGFR3: NovaScreen (NVS) Enzymatic Assay for human Vascular Endothelial Growth Factor Receptor 3 (VEGFR3) (AID 2283229). The procedure, abridged:
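Chemicals first run in duplicate at 25 uM, with actives re-tested in concentration series to a top of 50 uM. Recombinant VEGFR3 activity measured after 1 h via fluorescence with mobility-shift product separation; inhibition fitted relative to DMSO.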

The target in test [5] is rat Monoamine Oxidase, MAO-B, Peripheral (MAOBP), Maob (gene 25750) (UniProt P19643). The test is described as follows: NVS_ENZ_rMAOBP: NovaScreen (NVS) Enzymatic Assay for rat Monoamine Oxidase, MAO-B, Peripheral (MAOBP) (AID 2283242).
Test [6] deals with sheep Cyclooxygenase-1 (Cox1), PTGS1 (gene 443551) (UniProt P05979). The test is described as follows: NVS_ENZ_oCOX1: NovaScreen (NVS) Enzymatic Assay for sheep Cyclooxygenase-1 (Cox1) (AID 2283239).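 Also: actives reduce cyclooxygenase activity so potencies are for inhibitors.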 The procedure, abridged: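 Colorimetric enzyme readout using sheep seminal-vesicle cyclooxygenase-1, measured 0.66 h post-dosing. Single-concentration duplicates at 25 uM first, then concentration series for actives, with DMSO as baseline and plate controls.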

The target in test [7] is guinea pig Opioid, Kappa 1 Receptor (OpiateK), OPRK1 (gene 100135587) (UniProt P41144). Kind of test: NVS_GPCR_gOpiateK: NovaScreen (NVS) G Protein-Coupled Receptor Assay for guinea pig Opioid, Kappa 1 Receptor (OpiateK) (AID 2283252).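 Also: active means reduced radioligand binding relative to DMSO.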 In a few lines:
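Radioligand binding to kappa opioid receptor in guinea pig cerebellar membranes, read by filtration and scintillation at 2 h. Compounds first tested in duplicate at 25 uM, then actives in concentration series; signal loss fitted against DMSO.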

The target of test [8] is human Serotonin, 5-Hydroxytryptamine Receptor 7 (5HT7), HTR7 (gene 3363) (UniProt P34969). The test is described as follows: NVS_GPCR_h5HT7: NovaScreen (NVS) G Protein-Coupled Receptor Assay for human Serotonin, 5-Hydroxytryptamine Receptor 7 (5HT7) (AID 2283255).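 Also: hits reduce specific radioligand binding relative to DMSO.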 The procedure, abridged: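 Filter-bound radioactivity counted after 1 h, with loss of specific radioligand binding fitted against DMSO. Membrane protein came from CHO cells expressing human 5HT7. Chemicals were tested first at 25 uM in duplicate, then in concentration series if active.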

Test [9] has as its target human Thromboxane A2 Receptor (TXA2), TBXA2R (gene 6915) (UniProt P21731). The test is described as follows: NVS_GPCR_hTXA2: NovaScreen (NVS) G Protein-Coupled Receptor Assay for human Thromboxane A2 Receptor (TXA2) (AID 2283282).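 Also: actives reduce bound radioligand signal relative to DMSO baseline.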 The procedure, abridged: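 Human platelet membranes tested for radioligand displacement by filtration and scintillation counting 1 h post-dose. Screened in duplicate at 25 uM; activity fitted as signal loss relative to DMSO.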

The target of test [10] is Adenosine receptor A1 (Bos taurus) (UniProt P28190). Kind of test: NVS_GPCR_bAdoR_NonSelective: NovaScreen (NVS) G Protein-Coupled Receptor Assay for bovine Adenosine Receptor (AdoR), Non-selective Binding (AID 2283244). In a few lines: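 Cell-free binding with membranes from bovine striatum: radioligand displaced by test chemical, read after 1 h by filtration and scintillation. Single-point 25 uM duplicate primary, 50 uM top concentration in follow-up curves, DMSO baseline.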

Test [11] concerns the target guinea pig Leukotriene D4 Receptor (LTD4), CYSLTR1 (gene 100135514) (UniProt Q2NNR5). Kind of test: NVS_GPCR_gLTD4: NovaScreen (NVS) G Protein-Coupled Receptor Assay for guinea pig Leukotriene D4 Receptor (LTD4) (AID 2283248). The procedure, abridged:
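Guinea pig lung membrane preparation; bound radioligand measured by filter scintillation after 1 h, loss of signal versus DMSO marking displacement. Compounds tested at 25 uM in duplicate, hits retested to max 50 uM.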

Test [12] deals with human Serotonin, 5-Hydroxytryptamine Receptor 5A (5HT5A), HTR5A (gene 3361) (UniProt P47898). The test is described as follows: NVS_GPCR_h5HT5A: NovaScreen (NVS) G Protein-Coupled Receptor Assay for human Serotonin, 5-Hydroxytryptamine Receptor 5A (5HT5A) (AID 2283251). In a few lines: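 Membranes from HEK293 cells, radioligand binding read by filtration and scintillation after 1 h. Single-concentration duplicate testing at 25 uM, then concentration-response for actives; positive-direction fitting relative to DMSO.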

Test [13] deals with human Endothelin Receptor Type B (ETB), EDNRB (gene 1910) (UniProt P24530). The test is described as follows: NVS_GPCR_hETB: NovaScreen (NVS) G Protein-Coupled Receptor Assay for human Endothelin Receptor Type B (ETB) (AID 2283267). The procedure, abridged:
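Filter-based scintillation readout of radioligand displacement, 4 h, using membranes from human astrocytoma cells. Actives from a 25 uM duplicate screen were retested in concentration-response (top 50 uM) relative to DMSO baseline.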

In test [14] the target is human Leukotriene B4 Receptor 1 (LTB4-BLT1), LTB4R (gene 1241) (UniProt Q15722). The test is described as follows: NVS_GPCR_hLTB4_BLT1: NovaScreen (NVS) G Protein-Coupled Receptor Assay for human Leukotriene B4 Receptor 1 (LTB4-BLT1) (AID 2283271). In a few lines: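 Cell-free human neutrophil receptor preparation, 1 h exposure, radioligand binding read by filter scintillation counting. Single 25 uM duplicate screen, then concentration series topping at 50 uM; binding loss scored against DMSO baseline.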

The target of test [15] is mouse Cholecystokinin, CCK1 Receptor (CCKA), Cckar (gene 12425) (UniProt O08786). The test is described as follows: NVS_GPCR_mCCKAPeripheral: NovaScreen (NVS) G Protein-Coupled Receptor Assay for mouse Cholecystokinin, CCK1 Receptor (CCKA) (AID 2283285). The procedure, abridged:
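Chemicals were first screened in duplicate at 25 uM, with those meeting threshold (e.g., 30% inhibition) retested in singleton concentration series to 50 uM maximum. Binding of radioligand to mouse pancreatic membranes was read after 2 h by filtration and scintillation counting.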

Test [16] has as its system rabbit Platelet Activating Factor Receptor (PAF), gene 100354046. Kind of test: NVS_GPCR_rabPAF: NovaScreen (NVS) G Protein-Coupled Receptor Assay for rabbit Platelet Activating Factor Receptor (PAF) (AID 2283287). In a few lines:
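Rabbit platelet membrane preparation; radioligand displacement read by filter-based scintillation counting 1 h after dosing, loss of signal versus DMSO. Primary screen in duplicate at 25 uM, actives followed up in concentration series.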

The target in test [17] is rat Adrenergic, Alpha 1, Non-selective Receptor (Adra1), Adra1a (gene 29412) (UniProt P43140). Kind of test: NVS_GPCR_rAdra1_NonSelective: NovaScreen (NVS) G Protein-Coupled Receptor Assay for rat Adrenergic, Alpha 1, Non-selective Receptor (Adra1) (AID 2283289). As to the method:
NVS_GPCR_rAdra1_NonSelective is a biochemical, single-readout assay that uses extracted gene-proteins from Rat forebrain membranes in a tissue-based cell-free assay. Measurements were taken 1 hour after chemical dosing in a 48-well plate.NVS_GPCR_rAdra1_NonSelective is one of one assay component(s) measured or calculated from the NVS_GPCR_rAdra1_NonSelective assay. It is designed to make measurements of radioligand binding, a form of binding reporter, as detected with scintillation counting signals by Filter-based radiodetection technology.Data from the assay component NVS_GPCR_rAdra1_NonSelective was analyzed into 1 assay endpoint. This assay endpoint, NVS_GPCR_rAdra1_NonSelective, was analyzed in the positive analysis fitting direction relative to DMSO as the negative control and baseline of activity. Using a type of binding reporter, loss-of-signal activity can be used to understand changes in the binding as they relate to the gene Adra1a. Furthermore, this assay endpoint can be referred to as a primary readout, because the performed assay has only produced 1 assay endpoint. To generalize the intended target to other relatable targets, this assay endpoint is annotated to the gpcr intended target family, where the subfamily is rhodopsin-like receptor. […]

Test [18] addresses human Opioid Receptor Mu (Opiate Mu), OPRM1 (gene 4988) (UniProt P35372). Kind of test: NVS_GPCR_hOpiate_mu: NovaScreen (NVS) G Protein-Coupled Receptor Assay for human Opioid Receptor Mu (Opiate Mu) (AID 2283290).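 Also: hits lower bound tracer signal versus DMSO meaning displacement of the ligand.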 The procedure, abridged:
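Primary screen in duplicate at 25 uM, with actives followed in concentration series. CHO-derived receptor membranes, cell-free; bound radioligand read by scintillation counting after filtration at 2.5 h, decrease scored against DMSO.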

The target of test [19] is guinea pig Serotonin, 5-Hydroxytryptamine Receptor 4 (5HT4), HTR4 (gene 100135548) (UniProt O70528). Kind of test: NVS_GPCR_g5HT4: NovaScreen (NVS) G Protein-Coupled Receptor Assay for guinea pig Serotonin, 5-Hydroxytryptamine Receptor 4 (5HT4) (AID 2283294). In a few lines: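 Compounds first screened in duplicate at 25 uM, actives followed up in concentration series. Binding measured as displacement of specific radioligand from guinea pig striatal membranes, 1 h, filter-based scintillation read-out versus DMSO baseline.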

Test [20] concerns the target rat Adrenergic Receptor, Beta (Adrb), Non-selective Binding, Adrb1 (gene 24925) (UniProt P18090). Kind of test: NVS_GPCR_rAdrb_NonSelective: NovaScreen (NVS) G Protein-Coupled Receptor Assay for rat Adrenergic Receptor, Beta (Adrb), Non-selective Binding (AID 2283298). In a few lines:
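Rat cortical membranes incubated 1 h with beta-adrenergic radioligand and test chemical; bound ligand measured by filtration and scintillation counting. Screen at 25 uM duplicate, then concentration series with 50 uM maximum; loss of signal versus DMSO.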

Several values for one entry are separate records, joined by “and”; a condition that tells them apart may be missing. Equal entries are not always repeated. This is a selection; strong and weak results do not stand in their true shares. Results filed as inconclusive are left out. More than one record can exist for a structure, and the calls need not agree. Activity calls are given as the source filed them. The calls were made as follows: active = hit-call score of the fitted dose curve at least 0.9, where 1 is the maximum; inconclusive = response in the unintended direction; inactive = score below 0.9.

As for `O=C1C2CC=CCC2C(=O)N1SC(Cl)(Cl)C(Cl)Cl` (configuration not stated), the molecule was called inactive in [1]. Further, the AC50 (commonly the midpoint of the concentration-response curve, whichever way the signal moves) in test [2] was active: 8.83 µM.
Consider `Cc1cc([N+](=O)[O-])cc([N+](=O)[O-])c1O`, for which the call in [3], in [4] and in test [5] was inactive.
Regarding `CN(C(=O)Cc1cccc2occc12)[C@H]1CC[C@@]2(CCCO2)C[C@@H]1N1CCCC1`, the molecule was called inactive in [6], in test [8] and in test [9]. Besides, in [7], the AC50 is active: 3.16 nM.
As to `CC(C)OP(=S)(OC(C)C)SCCNS(=O)(=O)c1ccccc1`, the outcome in test [3], in test [10], in test [11], in [12], in test [7] and in [13] was inactive. For the same molecule, the molecule was called inactive in [14], in test [9], in [15], in test [17], in test [18] and in [19]. Also, in [20], the outcome was inactive. Further, the AC50 was active: 4.96 µM in test [12]; active: 3.43 µM and active: 2.16 µM in [7]; active: 6.58 µM in test [15]; active: 1.95 µM and active: 4.12 µM and active: 2.75 µM in test [16].
Regarding `O=[N+]([O-])c1ccc([N+](=O)[O-])cc1`, the call in [2] was inactive.
